Most compounds without a hit are left out; they make up all but 1.7% or so of the library.
GLP1R cytotox: cytotoxic in the GLP-1 receptor inverse agonist counter-screen; Potency, µM (highest dose often 38.3 µM), actives largely listed as inhibitors; AID 624418; HEK293 cAMP-luciferase reporter cells, luminescence, 24 h; 410,000 compounds, 0.13% hits;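 further: loss of luciferase light is scored as toxicity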
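Quantitative HTS format, 1536 wells, 200 cells/uL seeded. Compounds: 23 nL, 24 h, 37 °C. Detection: luciferase reagent, luminescence at 12 min RT; decreased signal taken as cytotoxic.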
GLP-1R inv ag: acts as inverse agonist at human GLP-1 receptor; P43220; HEK293 GLP-1R CRE-luciferase, luminescence, 24 h; GLP-1R form is constitutively active; Potency, µM (top dose mostly 38.3 µM), hits mostly inhibitors; 410,000 compounds, 1.6% hits; AID 624417; further: nearly all actives have a fitted effect of over 55% in size
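HEK293 cells stably co-expressing a cAMP-responsive luciferase reporter and constitutively active GLP-1R were seeded, incubated 12 h, then exposed to compounds for 24 h at 37 C. Luminescence was read 12 min after detection reagent; inverse agonists lower signal.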
GLP1R ag: agonists of human GLP-1 receptor; HEK293 GLP-1R CRE-luciferase, luminescence, 4-6 h; cells express a hypersensitive GLP-1R form; Potency, µM (doses to about 45.6 µM), hits mostly activators; 380,000 compounds, 0.007% hits; AID 624172
miR-21 reporter: miR-21 reporter, rising signal | AID 2288 | HeLa miR-21 FLuc reporter, luciferase, 48 h | 340,000 tested, under 10 active | Potency, µM (titrated, usually from 38.3 µM); active = well fitted rising curve with a large enough effect; inconclusive = small, poorly fitted or top-dose-only effect; inactive = no such curve, though single readings can be large or run the other way;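 also: miR-21 action dims this reporter so a rising signal means less miR-21 action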
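Compounds were titrated across several concentrations (up to approximately 40 uM) and incubated 48 hours with HeLa miR-21-FLuc reporter cells (miR-21 target sequence downstream of FLuc, endogenous miR-21). Readout was firefly luciferase luminescence after lytic detection reagent.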
Pin1 inh: inhibitors of human Pin1 | Q13526 | Pin1 FP peptide displacement, HiFluor488, 10 min | Potency, µM (titrated, usually from 115 µM), hits mostly inhibitors | 390,000 compounds, 0.009% hits; active means well fitted inhibition curve with a large enough effect in the polarisation, with a control signal flat, not every such curve was filed as active; inconclusive means small, poorly fitted or top-dose-only effect, or effect the other way, or a change in a side signal; inactive means no such curve, though single readings can be large or run the other way; the % refers to the polarisation
PTHR1 agonist: agonists of human PTHR1 parathyroid hormone receptor; Q03431; HEK293 GP2 PTHR1 cells, GloSensor cAMP luminescence, 1 h; Potency, µM (series often up to 115 µM), actives largely listed as activators; 410,000 compounds, 0.075% hits; further: nearly all actives have a fitted effect of over 55% in size
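HEK-293-derived GP2 cells expressing PTHR1 and a GloSensor cAMP reporter, 3,000/well, plated overnight, given luciferin plus IBMX (each 0.5 mM as added) for 1 h at 37 °C, then compound for 1 h at 37 °C. Luminescence was read after 15 min at room temperature.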
Each line names hits and unclear results; the compound was inactive in the other large screens. Unless noted, the call rests on the fitted dose curve; in most records, active means well fitted curve in the direction sought with a large enough effect; inconclusive means small, poorly fitted or top-dose-only effect, or another doubt; inactive means no such curve, though single readings can be large; an effect the other way counts as inactive or inconclusive.

CCCCCOC(=O)C1=C(C)Nc2nnnn2C1c1ccccc1Cl (stereo not given)	GLP-1R inv ag 10µM, Pin1 inh inconclusive
CC(C(=O)NCc1ccco1)n1nc(-c2ccccc2)c2cc(Cl)ccc21 (stereo not given)	none
CC(=O)c1ccc(NC(=O)C(C)n2nc(-c3ccccc3)c3cc(Cl)ccc32)cc1 (stereo not given)	GLP-1R inv ag 6.3µM
NC(=O)c1cc2ccncc2c2ccccc12	GLP-1R inv ag 1µM, miR-21 reporter inconclusive
Cc1cc(O)c(C=O)c2c1C(=O)Oc1c(CO)c(O)c3c(c1O2)C(O)OC3=O (stereo not given)	Pin1 inh 3.2µM
COc1ccccc1NC(=O)Cn1c(=O)n(-c2ccc(C)cc2)c(=O)c2c1cnn2C	none (no result: GLP1R ag)
C=CCN1C(=O)C(Cc2ccc(C)cc2)S/C1=N/N=C/c1ccco1 (stereo not given)	GLP-1R inv ag inconclusive
C=CCN1C(=O)C(Cc2ccccc2)S/C1=N/N=C/c1cccs1 (stereo not given)	GLP-1R inv ag 11µM
O=C1N/C(=N\N=C\c2cccs2)SC1Cc1ccc(Cl)cc1 (stereo not given)	none
C=CCN1C(=O)C(Cc2ccc(OCC)cc2)S/C1=N\N=C\c1cccs1 (stereo not given)	GLP-1R inv ag 10µM
O=C(c1cc(-c2ccc(Br)cc2)nc2ccccc12)N1CCC1	GLP-1R inv ag inconclusive (no result: miR-21 reporter)
O=C(c1cc(-c2cccc(Br)c2)nc2ccccc12)N1CCCC1	GLP-1R inv ag 10µM
CCCOc1ccc(/C=N/Nc2ccccc2[N+](=O)[O-])c(O)c1	none
CCCOc1ccc(/C=N/Nc2cccc([N+](=O)[O-])c2)c(O)c1	GLP1R cytotox inconclusive, GLP-1R inv ag 4.5µM
CNCCN(C)c1nc(-c2cccs2)nc2ccccc12	none (no result: GLP1R cytotox, GLP-1R inv ag, GLP1R ag, miR-21 reporter, PTHR1 agonist)
COC(=O)C1=C(N)Oc2cc(C)n(CC3CCCO3)c(=O)c2C1c1ccccc1OC (stereo not given)	none
COC(=O)C1=C(N)Oc2cc(N(C)C)ccc2C1c1ccccc1OC (stereo not given)	GLP-1R inv ag 6.3µM
CC1=C(C(=O)Nc2ccc(C)cc2C)C(c2ccc(O)cc2)n2nnnc2N1 (stereo not given)	GLP-1R inv ag inconclusive, miR-21 reporter inconclusive
CC(C)Cn1c(SCC(=O)N2CCCc3ccccc32)nc2ccccc2c1=O	GLP-1R inv ag 2.5µM
Cc1ccc(F)c([C@H]2[C@H]3C=CC[C@@H](C)[C@@H]3C(=O)N2Cc2ccccc2)c1	GLP-1R inv ag 10µM
CCC1CC=CC2C1C(=O)N(Cc1ccccc1)C2c1cccc([N+](=O)[O-])c1 (stereo not given)	none (no result: GLP1R cytotox, GLP-1R inv ag, GLP1R ag, miR-21 reporter, PTHR1 agonist)
C[C@@H]1CC=C[C@H]2[C@H]1C(=O)N(Cc1ccccc1)[C@H]2c1cccc([N+](=O)[O-])c1	GLP-1R inv ag 7.1µM
C[C@@H]1CC=C[C@H]2[C@H]1C(=O)N(Cc1ccccc1)[C@H]2c1ccc(-c2ccc(N(C)C)cc2)cc1F	GLP-1R inv ag 7.9µM
Cc1ccc(-c2ccc([C@H]3[C@H]4C=CC[C@@H](C)[C@@H]4C(=O)N3Cc3ccccc3)c(F)c2)cc1	none
O=C(CSc1ccccc1)N(c1ccc(Br)cc1)c1nccs1	GLP-1R inv ag 11µM
O=C(CCSc1ccccc1)Nc1nccs1	none
Brc1ccc2c(c1)C(C1=NCCN1)c1ccccc1CS2 (stereo not given)	GLP-1R inv ag 1.4µM
COc1ccc(Cl)cc1-c1cc(C(=O)NCc2cccc(Cl)c2)[nH]n1	GLP-1R inv ag 3.2µM (no result: miR-21 reporter, Pin1 inh)
COc1cc(F)ccc1-c1cc(C(=O)NCc2cccc(Cl)c2)[nH]n1	GLP-1R inv ag inconclusive (no result: miR-21 reporter, Pin1 inh)
S=C(Nc1ccccc1)Nc1ccc(OCc2ccc(Cl)cc2Cl)cc1	GLP1R cytotox inconclusive, GLP-1R inv ag inconclusive, miR-21 reporter inconclusive
CC(C)NC(=NCc1ccc(Cl)cc1Cl)Nc1ccccc1	GLP-1R inv ag 7.9µM
O=C(CCN1CCCC1)Nc1cccc(Br)c1	Pin1 inh inconclusive
O=C(CCN1CCN(c2ccccc2)CC1)Nc1cccc(Br)c1	GLP-1R inv ag 11µM
Cn1c(=O)n(C/C=C/c2ccccc2)c(=O)c2c1nc1n2CCN1c1ccccc1	none (no result: GLP1R ag)
COc1ccc(Br)cc1CNC(=O)c1ccc2c(c1)nc1n2CCCCC1	GLP-1R inv ag inconclusive (no result: GLP1R ag)
C=Cc1cc(F)c(S(=O)(=O)N2CCN(S(=O)(=O)c3ccc4c(c3)OCCO4)CC2)cc1F	none (no result: GLP1R cytotox, GLP-1R inv ag, GLP1R ag, miR-21 reporter, PTHR1 agonist)
Cc1ccc(CCNC(=O)c2sc3ncccc3c2-n2c(C)ccc2C)cc1	GLP-1R inv ag 11µM (no result: GLP1R ag)
Cc1ccc(NC(=O)CC2Nc3ccccc3NC2=O)cc1Cl (stereo not given)	GLP-1R inv ag 10µM
COc1ccc(OCc2cc(C3Nc4ccccc4C(=O)N3Cc3ccccc3)ccc2OC)cc1 (stereo not given)	none (no result: GLP1R cytotox, GLP-1R inv ag, GLP1R ag, miR-21 reporter, PTHR1 agonist)
O=C(OCC#CCSc1nnc(-c2cccc3ccccc23)o1)c1ccsc1	none (no result: GLP1R cytotox, GLP-1R inv ag, GLP1R ag, miR-21 reporter, PTHR1 agonist)
CCc1ccc(NC(=O)c2cnn3ccccc23)cc1	GLP-1R inv ag 5µM, miR-21 reporter inconclusive
CCc1ccc(NC(=O)c2cnn(-c3ccccc3)c2-n2cccc2)cc1	GLP-1R inv ag inconclusive (no result: GLP1R ag)
N/C(=N\OC(=O)COc1ccc(Cl)cc1Cl)c1ccccn1	GLP-1R inv ag inconclusive
N/C(=N\OC(=O)COc1ccc(Br)cc1Cl)c1ccccn1	GLP-1R inv ag 10µM
CCNC(=O)CC1C(=O)N(c2ccc(C)cc2)C(=O)N1Cc1ccc(C)cc1 (stereo not given)	none
CC(C)(C)c1ccc(S(=O)(=O)c2cnc(SCC(=O)Nc3ccc4c(c3)OCCO4)[nH]c2=O)cc1	none (no result: GLP1R ag, Pin1 inh)
O=C(NCc1ccc(F)cc1)C1CCN(S(=O)(=O)c2ccc(Br)s2)CC1	GLP-1R inv ag 10µM
Nc1ccccc1OC1=NS(=O)(=O)c2ccccc21	none (no result: GLP1R cytotox, GLP-1R inv ag, GLP1R ag, miR-21 reporter, PTHR1 agonist)
COc1ccc(C(NC(C)=O)c2ccc3cccnc3c2O)c(OC)c1 (stereo not given)	GLP1R cytotox inconclusive, GLP-1R inv ag 3.5µM
CC(C)C(=O)NC(c1cccc([N+](=O)[O-])c1)c1ccc2cccnc2c1O (stereo not given)	GLP1R cytotox 2.5µM, GLP-1R inv ag inconclusive, miR-21 reporter inconclusive
CCCC(=O)NC(c1cccc([N+](=O)[O-])c1)c1ccc2cccnc2c1O (stereo not given)	GLP1R cytotox inconclusive, GLP-1R inv ag inconclusive (no result: miR-21 reporter, Pin1 inh)
COc1ccc(CC(=O)NCC(c2cccs2)S(=O)(=O)c2ccc(Cl)cc2)cc1 (stereo not given)	none (no result: GLP1R ag, Pin1 inh)
O=C(CCl)N1N=C(c2cccs2)CC1c1ccco1 (stereo not given)	miR-21 reporter inconclusive
